In patent publication US10800749B2, “Centrally active and orally bioavailable antidotes for organophosphate exposure and methods for making and using them” (dated 2020) one finds Protective index data, which are given here for two substances.

This assay has as its system VX exposed mice. The assay can be described thus: Antidotal efficacy of oximes in VX-exposed mice (protective index).

On to 2-pyridinealdoxime methiodide, for which the Protective index (VX, oxime p.o. 15 min before OP, atropine i.m. 1 min after OP) was found to be 1.1.

With “N-(2-(4-Azatricyclo[4.3.1.13′8]undecan-4-yl)ethyl)-2-(hydroxyimino)acetamide”, the Protective index (VX exposed mouse, in vivo therapeutic efficacy) is 10.8 (range is 9.1 to 12.7).
